Biological target: BSA (Bos taurus, UniProt P02769)
Assay: Nonspecific adsorption test for BSA protein in SPR biosensor, gold film
Conditions: Substrate 2; 10 minutes of protein adsorption, PBS buffer wash; FIG. 8

Sequences of proteins named here, by UniProt entry; tags and fusion partners are left off. A change or cut given only in a name is not applied to a line headed by its entry.
UniProt P02769: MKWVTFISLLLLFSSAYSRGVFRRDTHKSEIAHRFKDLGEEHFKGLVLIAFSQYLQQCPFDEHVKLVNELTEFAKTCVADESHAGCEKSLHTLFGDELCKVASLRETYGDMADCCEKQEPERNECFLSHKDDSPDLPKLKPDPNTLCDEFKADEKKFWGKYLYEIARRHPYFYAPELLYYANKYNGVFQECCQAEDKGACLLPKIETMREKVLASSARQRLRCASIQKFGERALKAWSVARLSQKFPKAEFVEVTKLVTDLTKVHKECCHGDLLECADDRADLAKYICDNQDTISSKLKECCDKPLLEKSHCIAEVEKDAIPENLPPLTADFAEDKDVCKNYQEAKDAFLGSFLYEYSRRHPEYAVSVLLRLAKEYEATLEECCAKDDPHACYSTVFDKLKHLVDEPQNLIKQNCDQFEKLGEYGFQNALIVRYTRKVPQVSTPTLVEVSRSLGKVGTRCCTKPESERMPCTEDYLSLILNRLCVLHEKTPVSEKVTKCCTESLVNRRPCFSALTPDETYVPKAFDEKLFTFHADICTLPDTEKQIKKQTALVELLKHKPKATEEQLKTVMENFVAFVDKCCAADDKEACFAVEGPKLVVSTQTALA

carboxy-beta-methyl-betaine disulfide
nonspecific adsorption of BSA after PBS wash: BSA is removed from the surface
